PubChem BioAssay AID540253 (National Center for Advancing Translational Sciences (NCATS), 2011)
This is a selection; strong and weak results do not stand in their true shares. Inconclusive results are not listed. Some structures show a salt or complex split into parts, the way the source records it. Calls of active or inactive are those of the source. Calls follow the shape of the full dose curve.

What follows are molecules tested against Snurportin-1 (Homo sapiens) + GTP-binding nuclear protein Ran (Homo sapiens) + Importin subunit beta-1 (Homo sapiens) (UniProt O95149+P62826+Q14974) (assay: qHTS Assay for Inhibitors of RanGTP induced Rango (Ran-regulated importin-beta cargo) - Importin beta complex dissociation). Details: Biochemical FRET Rango-importin beta; at 46.1 µM (top of the series).
Also: % of control where 0% means no effect; nearly all actives have a fitted effect of over 45% in size.

| Structure (SMILES) | activity change, negative = inhibition |
| --- | --- |
| CCOC(=O)C(CC)C1=NC(C)(C)Cc2ccccc21.O=[N+]([O-])c1cc([N+](=O)[O-])c(O)c([N+](=O)[O-])c1 (stereo not given) | inactive: 17.1% |
| N#Cc1ccc(C(=O)NCC2(N3CCCCC3)CCCCC2)cc1 | inactive: 4.66% |
| CC(C)(C)OC(=O)N1CCC(N(C(=O)c2ccccc2)c2ccc(Cl)cc2)CC1 | inactive: -12.9% |
| CN(C)C1(CNC(=O)c2cccc(C#N)c2)CCCCC1 | inactive: -6.07% |
| c1ccc(CN2CCC(Nc3ccccc3)CC2)cc1 | inactive: 0.794% |
| Cc1cc(N(CCCl)CCCl)ccc1C=O | inactive: -1.3% |
| CCCN1CCC(Nc2cc(OC)cc(OC)c2)CC1 | inactive: 0.676% |
| COc1cc(C(=O)NCC2(N3CCOCC3)CCCCC2)cc(OC)c1C | inactive: -8.82% |
| O=C(NCC1(N2CCOCC2)CCCCC1)c1cc(Br)ccc1Cl | inactive: -2.98% |
| CCc1cc(C(=O)NCC2(N3CCCCC3)CCCCC2)sc1C | inactive: -1.79% |
| O=C(OC1CN2CCC1CC2)C1c2ccccc2C=Cc2ccccc21 (stereo not given) | inactive: -4.04% |
| O=C(O)c1cccc(Nc2c([N+](=O)[O-])cc([N+](=O)[O-])cc2[N+](=O)[O-])c1 | inactive: -7.85% |
| CCOC(=O)N1CCC(Nc2ccc(C)cc2)CC1 | inactive: 2.67% |
| N/C(=N\O)c1c(N)no[n+]1[O-] | inactive: -2.77% |
| CC(C)(C)OC(=O)N1CCC(Nc2ccccc2)CC1 | inactive: -4.42% |
| O=C(O)C1(Nc2ccccc2)CCN(Cc2ccccc2)CC1 | inactive: 5.01% |
| CCCOc1ccc(C(=O)NCC2(N(C)C)CCCCC2)cc1 | inactive: -9.8% |
| CCOc1ncccc1C(=O)NCC1(N2CCOCC2)CCCCC1 | inactive: -5.86% |
| CN1CCC(Nc2ccc(F)c(Cl)c2)CC1 | inactive: 10.7% |
| CN1CCC(Nc2ccc(Cl)cc2)CC1 | inactive: -14.7% |
| COc1cc(OC)cc(C(=O)NCC2(N3CCOCC3)CCCCC2)c1 | inactive: -18.3% |
| COc1cccc(C(=O)N(c2cc(C)cc(C)c2)C2CCN(C(=O)OC(C)(C)C)CC2)c1 | inactive: 33.8% |
| CCC(CO)(C(=O)OC1CN2CCC1CC2)c1ccccc1 (stereo not given) | inactive: 2.03% |
| Cc1ccc(C(=O)NCC2(N3CCCCC3)CCCCC2)o1 | inactive: -3.56% |
| Fc1ccccc1NC1CCN(Cc2ccccc2)CC1 | inactive: 7.84% |
| Cc1ccc(NC2(C#N)CCN(Cc3ccccc3)CC2)cc1 | inactive: 7.64% |
| CC(=O)N(c1ccccc1)C1CCNCC1 | inactive: 20.4% |

| Structure (SMILES) | activity change, negative = inhibition |
| --- | --- |
| COc1cc(OC)cc(C(=O)NCC2(N3CCCCC3)CCCCC2)c1 | inactive: 25.8% |
| O=C(NCC1(N2CCCCC2)CCCCC1)c1ccco1 | inactive: 0.927% |
| CN(C)c1ccc(C(=O)NCC2(N3CCCCC3)CCCCC2)cc1 | inactive: 0.211% |
| Cn1c(=O)[nH]cc(N(CCCl)CCCl)c1=O | inactive: 0.0508% |
| Cc1ccccc1NC1(C#N)CCN(Cc2ccccc2)CC1 | inactive: 2.99% |
| CCN1CCC(Nc2cccc(F)c2)CC1 | inactive: -15.7% |
| O=P1(N(CCCl)CCCl)SCCCS1 | inactive: -9.16% |
| CCCCOc1ccc(C(=O)NCC2(N3CCOCC3)CCCCC2)cc1 | inactive: 11.3% |
| O=C(NCC1(N2CCCCC2)CCCCC1)c1ccc(F)cc1 | inactive: 10.2% |
| COc1ccc(NC2CCN(CCc3ccccc3)CC2)c(OC)c1 | inactive: -5.11% |
| CCOC(=O)N1CCC(Nc2ccc(F)cc2)CC1 | inactive: 10.1% |
| O=C1CCN(Cc2ccccc2)CC1 | inactive: -6.45% |
| CCOc1ccc(C)cc1CN(CCCl)CCCl | inactive: 1.41% |
| CCOC(=O)N1CCC(Nc2cccc(C)c2)CC1 | inactive: -15.5% |
| COc1cc(C(=O)NCC2(N(C)C)CCCCC2)ccc1OC(F)F | inactive: 0.795% |
| CSc1ccccc1C(=O)NCC1(N2CCCCC2)CCCCC1 | inactive: 0.622% |
| Cc1cccc(NC2(C#N)CCN(Cc3ccccc3)CC2)c1 | inactive: 0.785% |
| COc1ccc(C(=O)NCC2(N3CCCCC3)CCCCC2)cc1 | inactive: -0.194% |
| CC(C)(C)OC(=O)N1CCC(N(C(=O)c2ccccc2)c2ccc(F)cc2)CC1 | inactive: -0.36% |
| COc1ccc(C(=O)NCC2(N3CCCCC3)CCCCC2)c(OC)c1OC | inactive: 12.8% |
| O=C(NCC1(N2CCCCC2)CCCCC1)c1ccc(=O)[nH]c1 | inactive: 1.24% |
| O=C(NCC1(N2CCCCC2)CCCCC1)c1cccs1 | inactive: -19.7% |
| O=C(NCC1(N2CCCCC2)CCCCC1)c1ccc(Cl)s1 | inactive: -3.17% |
| N#CC1(Nc2ccccc2)CCN(Cc2ccccc2)CC1 | inactive: 7.38% |
| O=C(OC1CN2CCC1CC2)C1c2ccccc2Oc2ccccc21 (stereo not given) | inactive: 2.17% |
| COc1ccc(Cl)cc1C(=O)NCC1(N2CCOCC2)CCCCC1 | inactive: 5.54% |
| O=C1C(O)=C([N+](=O)[O-])C(=O)C(O)=C1[N+](=O)[O-] | inactive: -7.51% |

| Structure (SMILES) | activity change, negative = inhibition |
| --- | --- |
| CCOC(=O)N1CCC(Nc2ccc(OC)cc2)CC1 | inactive: 5.76% |
| O=C(NCC1(N2CCCCC2)CCCCC1)c1ccc(Cl)nc1 | inactive: -7.27% |
| Cc1cc(C)cc(N(C(=O)c2ccccc2)C2CCN(C(=O)OC(C)(C)C)CC2)c1 | inactive: -11.2% |
| O=C(NCC1(N2CCOCC2)CCCCC1)c1cc2ccccc2o1 | inactive: -6.89% |
| COc1cc(OC)c(C(=O)NCC2(N(C)C)CCCCC2)cc1OC | inactive: 8.52% |
| O=C(NCC1(N2CCOCC2)CCCCC1)c1cc(F)c(F)cc1Cl | inactive: -0.598% |
| CC(C)c1ccc(NC2CCN(C(=O)OC(C)(C)C)CC2)cc1 | inactive: 9.66% |
| COc1ccc(CN(CCCl)CCCl)cc1Cl | inactive: 1.39% |
| O=[N+]([O-])c1cc([N+](=O)[O-])c(OC2CCCCC2O)c([N+](=O)[O-])c1 (stereo not given) | inactive: 11.8% |
| CN(C)c1cccc(C(=O)NCC2(N3CCCCC3)CCCCC2)c1 | inactive: 19.6% |
| CCCOc1ccc(C(=O)NCC2(N(C)C)CCCCC2)cc1OC | inactive: -4.47% |
| O=C(OC1CN2CCC1CC2)c1ccc([N+](=O)[O-])cc1 (stereo not given) | inactive: -13.1% |
| CN1CCC(Nc2cccc(F)c2)CC1 | inactive: -1.49% |
| COc1ccc2c(c1O)-c1c(O)c(OC)cc3c1[C@H](C2)[N+](C)(C)CC3.O=[N+]([O-])c1cc([N+](=O)[O-])c([O-])c([N+](=O)[O-])c1[O-] | inactive: 0.331% |
| O=C(NCC1(N2CCCCC2)CCCCC1)c1cncc(Br)c1 | inactive: -9.26% |
| CCN1CCC(Nc2ccc(Cl)cc2)CC1 | inactive: 13.2% |
| O=C(NCC1(N2CCCCC2)CCCCC1)c1cccc([N+](=O)[O-])c1 | inactive: 15.3% |
| CSc1ccc(C(=O)NCC2(N3CCOCC3)CCCCC2)cc1 | inactive: -7.38% |
| O=C(NCC1(N2CCCCC2)CCCCC1)c1ccc(OC(F)F)cc1 | inactive: 0.654% |
| COc1cc(C(=O)NCC2(N3CCCCC3)CCCCC2)ccc1OC(F)F | inactive: -0.731% |
| O=C(NCC1(N2CCOCC2)CCCCC1)c1cc(=O)[nH]c2ccccc12 | inactive: 9.77% |
| CN1CCN(CCOC(=O)C(O)(c2ccccc2)c2ccccc2)CC1 | inactive: 0.86% |
| CC(C)c1ccc(C(=O)NCC2(N3CCOCC3)CCCCC2)cc1 | inactive: 0.74% |
| COc1ccc(NC2CCN(C(=O)OC(C)(C)C)CC2)cc1 | inactive: 9.28% |
| O=[N+]([O-])c1cc([N+](=O)[O-])c(NCC2CCS(=O)(=O)C2)c([N+](=O)[O-])c1 (stereo not given) | inactive: -6.12% |
| O=C(NCC1(N2CCCCC2)CCCCC1)c1cccc(C(F)(F)F)c1 | inactive: 7.98% |
